Values quoted from earlier work as cited in patent publication US8765126B2, “Methods of treating complications and disorders associated with G-CSF administration” (priority 2011, dated 2014).

Target: T1, E-selectin (Homo sapiens, UniProt P16581)
T1 sequence (P16581 22-610): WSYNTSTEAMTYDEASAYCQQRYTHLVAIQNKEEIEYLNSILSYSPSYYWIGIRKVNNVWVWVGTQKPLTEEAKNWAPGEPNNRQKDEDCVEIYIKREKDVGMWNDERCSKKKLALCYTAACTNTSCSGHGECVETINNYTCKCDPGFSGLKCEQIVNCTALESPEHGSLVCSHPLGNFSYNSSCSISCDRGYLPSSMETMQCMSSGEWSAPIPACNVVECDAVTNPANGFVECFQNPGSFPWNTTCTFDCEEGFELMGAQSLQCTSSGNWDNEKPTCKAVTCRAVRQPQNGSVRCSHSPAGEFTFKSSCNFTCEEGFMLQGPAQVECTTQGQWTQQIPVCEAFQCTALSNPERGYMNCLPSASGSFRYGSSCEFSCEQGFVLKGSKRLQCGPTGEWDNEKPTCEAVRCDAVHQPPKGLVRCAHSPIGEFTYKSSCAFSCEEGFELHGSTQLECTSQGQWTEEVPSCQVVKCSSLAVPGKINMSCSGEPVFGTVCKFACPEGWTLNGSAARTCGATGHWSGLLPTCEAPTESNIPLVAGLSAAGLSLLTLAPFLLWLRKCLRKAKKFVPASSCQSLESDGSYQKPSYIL
Details: administration of SLe^x; cited from earlier work

Sialyl Lewis X [SLe^x]
SLe^x/E-selectin interaction: inhibits | adhesion of neutrophils to endothelial cells: blocks
